Four molecules from US10774087B2, “Sulfonamide derivative having coumarin skeleton” (Daiichi Sankyo Company, Limited, priority 2016, dated 2020) can be followed below.

Broadly, the pIC50 is −log10 of the IC50, conventionally taken in molar units.

pIC50: −log10 of the molar value.

For this assay, the target named is T1, recombinant MTHFD1 protein (dehydrogenase domain, alone) (Homo sapiens, UniProt P11586).
T1 construct: recombinant MTHFD1 protein (dehydrogenase domain, alone)
T1 sequence (P11586 2-291 limits assumed): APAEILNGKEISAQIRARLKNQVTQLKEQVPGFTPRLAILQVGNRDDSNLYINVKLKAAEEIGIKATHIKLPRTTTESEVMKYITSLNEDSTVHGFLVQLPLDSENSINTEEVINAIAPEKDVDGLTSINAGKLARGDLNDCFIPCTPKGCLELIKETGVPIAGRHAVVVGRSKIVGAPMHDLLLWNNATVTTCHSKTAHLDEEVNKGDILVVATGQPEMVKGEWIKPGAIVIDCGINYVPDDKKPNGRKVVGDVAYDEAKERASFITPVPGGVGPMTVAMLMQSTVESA
Briefly: MTHFD1 dehydrogenase assay. The assay is classed as biochemical. To be noted: 165.4 μM NADP, room temperature 30 minutes, absorbance 355 nm.
For `Cc1c(N2CCN(C)CC2)ccc2c3c(c(=O)oc12)CN(C(=O)c1ccc(NS(C)(=O)=O)c(OC(F)(F)F)c1)CC3` [Example 3, N-[4-{[7-Methyl-8-(4-methylpiperazin-1-yl)-5-oxo-1,5-dihydro-2H-chromeno[3,4-c]pyridin-3(4H)-yl]carbonyl}-2-(trifluoromethoxy)phenyl]methanesulfonamide], the pIC50 is 5.54.

As for `Cc1c(N2C[C@@H](C)N(C)[C@@H](C)C2)ccc2c3c(c(=O)oc12)CN(C(=O)c1ccc(NS(C)(=O)=O)c(Cl)c1)CC3` [Example 14, N-[2-Chloro-4-({7-methyl-5-oxo-8-[(3R,5S)-3,4,5-trimethylpiperazin-1-yl]-1,5-dihydro-2H-chromeno[3,4-c]pyridin-3(4H)-yl}carbonyl)phenyl]methanesulfonamide], the pIC50 was 5.31.

For the molecule `Cc1c(N2CCN(C)[C@@H](C)C2)ccc2c3c(c(=O)oc12)CN(C(=O)c1ccc(NS(C)(=O)=O)c(Cl)c1)CC3` [Example 4, N-[2-Chloro-4-({8-[(3S)-3,4-dimethylpiperazin-1-yl]-7-methyl-5-oxo-1,5-dihydro-2H-chromeno[3,4-c]pyridin-3(4H)-yl}carbonyl)phenyl]methanesulfonamide], the pIC50 was 5.96.

Regarding `Cc1c(N2CCN(C)CC2)ccc2c3c(c(=O)oc12)CN(C(=O)c1ccc(NS(C)(=O)=O)c(Cl)c1)CC3` [Example 1, N-(2-chloro-4-{[7-methyl-8-(4-methylpiperazin-1-yl)-5-oxo-1,5-dihydro-2H-chromeno[3,4-c]pyridin-3(4H)-yl]carbonyl}phenyl)methanesulfonamide], the pIC50 is 5.19.
